This note sets out measurements from patent US8674113B2, “Compounds” (Boehringer Ingelheim International GmbH, priority 2010, dated 2014).

Protein sequences, listed by entry. Tags and fused reporters are not part of them.
UniProt O14684, whole entry: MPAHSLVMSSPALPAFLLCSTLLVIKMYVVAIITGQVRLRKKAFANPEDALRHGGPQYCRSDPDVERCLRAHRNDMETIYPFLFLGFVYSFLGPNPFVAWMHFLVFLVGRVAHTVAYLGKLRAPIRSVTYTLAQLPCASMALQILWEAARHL

pIC50: −log10 of the molar value.

The target of one experiment is mPGES-1 in A549 cells (Homo sapiens (Human), UniProt O14684). Kind of experiment: A549 cell-based assay (PGE2 formation, 50% human serum). The conditions noted are these: read-out: mPGES-1 inhibitory effect IC50 in the cell assay, IL-1β 5 ng/ml, 10 nM arachidonic acid, 20-24 h.
The target of experiment [1] is recombinant human mPGES-1 (Homo sapiens (Human), UniProt O14684). Kind of experiment: mPGES-1 enzyme assay (HTRF detection of PGE2). The conditions noted are these: read-out: mPGES-1 inhibitory effect IC50 in the enzyme assay; recombinant human mPGES-1 microsomes, PGH2 2 μM, 60 seconds. Background: TR-FRET usually uses a lanthanide donor and a delayed reading to cut background.

Consider `CC(C)(C)C(=O)NCc1ccc(Cl)c(Nc2nc3cc(C(=O)N[C@H]4CC[C@H](C(F)(F)F)CC4)c(N4CCC(F)(F)CC4)cc3n2CC(F)F)c1Cl` (relative stereo), for which the pIC50 on mPGES-1 in A549 cells was over 9.00; in experiment [1], 8.70.
